The source of these data is patent publication US5063242A (priority 1990, dated 1991).

By UniProt entry, the sequences of proteins in these tests, tags left out. Where a name states a change or a piece, a line headed by the entry shows the natural chain unless it says otherwise.
UniProt P41144: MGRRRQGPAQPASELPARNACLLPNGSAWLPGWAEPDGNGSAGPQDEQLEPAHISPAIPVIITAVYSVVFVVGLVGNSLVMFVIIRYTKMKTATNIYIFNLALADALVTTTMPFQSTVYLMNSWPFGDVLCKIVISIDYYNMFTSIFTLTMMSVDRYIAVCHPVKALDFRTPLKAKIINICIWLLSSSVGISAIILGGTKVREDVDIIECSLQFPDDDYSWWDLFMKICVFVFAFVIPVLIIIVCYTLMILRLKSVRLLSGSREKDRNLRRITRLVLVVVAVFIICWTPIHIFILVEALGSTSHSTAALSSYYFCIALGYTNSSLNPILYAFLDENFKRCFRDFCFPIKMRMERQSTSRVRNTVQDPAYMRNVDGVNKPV

One assay deals with normally hydrated rat. The assay is described as follows: rat diuresis test (urine output in the normally hydrated rat). Particulars: subcutaneous, six-hour test period; for maximum volume of urine produced: highest dose tested / maximum effect, mean ± SEM.
Assay [1] concerns carrageenan footpad edema in rats. The assay is described as follows: carrageenan footpad edema test. It is filed as in vivo, rat. As to conditions: for Delta Edema (x ± SEM): 5 hours after carrageenan. Background: In the carrageenan paw model, swelling and tenderness develop within hours.
Another assay has as its system rat paw pressure. The assay is described as follows: rat paw pressure test for analgesia. Particulars: iv.
For assay [2], the target named is kappa receptor (Cavia porcellus, UniProt P41144). The assay is described as follows: in vitro kappa opioid receptor binding.
Assay [3] relates to kappa receptor. In words: in vitro kappa opioid receptor binding. Particulars: selectivity, μ versus kappa.
The next assay relates to Male F-344 rats. The assay is described as follows: focal brain ischemia: left middle cerebral artery (MCA) occlusion, infarct size by TTC stain.

As for `CN(C(=O)Cc1cccc2occc12)[C@H]1CC[C@@]2(CCCO2)C[C@@H]1N1CCCC1` (relative stereo), the “maximum volume of urine produced” value in the assay with normally hydrated rat was determined as 14.9 ± 0.7 mL.

As a reminder, the Ki is a measure of affinity in units of concentration, obtained from inhibition or displacement. A high value points to weaker binding. Consider `CN(C(=O)Cc1cccc2occc12)[C@H]1CC[C@@]2(CCCO2)C[C@@H]1N1CCCC1` (single isomer, unassigned), for which the “inhibitor of the acute inflammatory response in rats (in words)” value in assay [1] (IV) is on record as “potent”. In addition, the “% I” value in assay [1] (IV 0.01 mg/kg) is recorded as 29%; in assay [1] (IV 0.03 mg/kg) it was 36%; in assay [1] (IV 0.1 mg/kg) it was 37%; in assay [1] (IV 0.3 mg/kg), 63%; in assay [1] (IV 1.0 mg/kg) it was 75%. In addition, the “Delta Edema (x ± SEM)” value was found to be 55 ± 4.9 in assay [1] (IV 0.01 mg/kg); 50 ± 3.2 in assay [1] (IV 0.03 mg/kg); 49 ± 2.5 in assay [1] (IV 0.1 mg/kg); 29 ± 3.9 in assay [1] (IV 0.3 mg/kg); 19 ± 3.7 in assay [1] (IV 1.0 mg/kg). In the assay on rat paw pressure, the “MPEso in the rat paw pressure test for analgesia” value was found to be 0.030. In addition, at kappa receptor [2] (in vitro receptor binding studies, result in words), the “affinity for the kappa receptor” value is “very high affinity and selectivity”. At kappa receptor [2] (kappa opioid affinity), this molecule registered a Ki of 0.73 nM. In the assay with kappa receptor [3], the μ/kappa ratio was determined as 798. In addition, the “maximum volume of urine produced” value in the assay with normally hydrated rat was 15.5 ± 1.2 mL. In addition, the “effect on urine output (in words)” value with normally hydrated rat is reported as “dose-related increase in the volume of urine”. Further, the “effect on infarct area and total volume (summary in words)” value in the assay with Male F-344 rats (0.5 mg/kg IV) is “significant decrease in the infarct area in three of the four brain sections and in the total volume”. Further, the “Decrease (% change of infarct size vs saline)” value with Male F-344 rats (Anterior Medial section, 0.5 mg/kg IV) was -36.8%; in the assay with Male F-344 rats (Anterior section, 0.5 mg/kg IV) it was -26.4%; in the assay on Male F-344 rats (Posterior Medial section, 0.5 mg/kg IV) it was -62.7%; with Male F-344 rats (Posterior section, 0.5 mg/kg IV), -80.9%; with Male F-344 rats (Total Volume, 0.5 mg/kg IV) it was -52.3%. The “Infarct Size” value in the assay on Male F-344 rats (Anterior Medial section, 0.5 mg/kg IV 30 minutes and 24 hours after occlusion, 48 hours after occlusion, mean) came to 7.8 mm^2; with Male F-344 rats (Anterior section, 0.5 mg/kg IV 30 minutes and 24 hours after occlusion, 48 hours after occlusion, mean), 6.5 mm^2; in the assay with Male F-344 rats (Posterior Medial section, 0.5 mg/kg IV 30 minutes and 24 hours after occlusion, 48 hours after occlusion, mean), 4.0 mm^2; in the assay on Male F-344 rats (Posterior section, 0.5 mg/kg IV 30 minutes and 24 hours after occlusion, 48 hours after occlusion, mean), 1.8 mm^2. Also, the “Infarct Size, Total Volume” value with Male F-344 rats (Total volume of infarction, 0.5 mg/kg IV 30 minutes and 24 hours after occlusion, 48 hours after occlusion, mean) is reported as 30.1 mm^3.
